{
  "source": "patent US4118424A",
  "about": "“Biodegradable insecticides” (priority 1976, dated 1978)",
  "tested_on": "mice",
  "experiment": "Mouse toxicity, oral, Table I",
  "assay_type": "in vivo",
  "conditions": "oral administration",
  "experimental": "Dianisyl-2-chloropropane (\"DCP\") was tested for insecticidal activities using standard methods and compared with the activities of DDT and methoxychlor. In addition, DCP was tested for mouse toxicity, fish toxicity and biodegradibility.",
  "data": [
    {"smiles": "COc1ccc(C(c2ccc(OC)cc2)C(Cl)(Cl)Cl)cc1", "note": "[Methoxychlor, reference compound]", "values": [
      {"measurement": "mouse toxicity (head is a drawing)", "value": 1000}
    ]}
  ]
}
